Measurements published in US11419869B2, “Dosage forms and regimens for amino acid compounds” (Pliant Therapeutics, Inc., priority 2019, dated 2022).

Tested on: Type I Collagen gene Col1a1 expression
Assay: Precision cut lung slices, mice under acute bleomycin exposure (Example B8)
Assay type: cell-based
Method: Mice (C57BL/6) were administered 3 U/kg of bleomycin (Teva Pharmaceuticals; North Wales, Pa.) on day 0 via oropharyngeal aspiration while under anesthesia. On day 14, precision cut lung slices were obtained. Following euthanization, 2% low gelling temp agarose was injected into the mouse lungs via the trachea. […] The lobes were then subjected to precision slicing to obtain samples for culture using a microtome (Compresstome VF-300-0Z, Precisionary; Greenville, N.C.). Individual slices were distributed in a multiwell culture plate and cultured for 3 days under control (DMSO) and test compound conditions.

With Cc1cc(C)n(-c2cccc([C@H](CC(=O)O)CN3CC[C@H](CCc4ccc5c(n4)NCCC5)C3)c2)n1 [first pan-av small molecule inhibitor, (3S)-3-[3-(3,5-dimethyl-1H-pyrazol-1-yl)phenyl]-4-{(3S)-3-[2-(5,6,7,8-tetrahydro-1,8-naphthyridin-2-yl)ethyl]-1-pyrrolidinyl}butanoic acid] the “Type I Collagen gene Col1a1 expression” value was “reduced Type I Collagen gene Col1a1 expression”.
